Experimental data taken from patent publication US20260382690A1, “Dual-Domain Peptide for Depleting HMGB1 from the Circulation via Liver HSPG System” (published 2026).

The chains behind the UniProt entries cited, without tags or fusion partners.
UniProt P09429, whole entry: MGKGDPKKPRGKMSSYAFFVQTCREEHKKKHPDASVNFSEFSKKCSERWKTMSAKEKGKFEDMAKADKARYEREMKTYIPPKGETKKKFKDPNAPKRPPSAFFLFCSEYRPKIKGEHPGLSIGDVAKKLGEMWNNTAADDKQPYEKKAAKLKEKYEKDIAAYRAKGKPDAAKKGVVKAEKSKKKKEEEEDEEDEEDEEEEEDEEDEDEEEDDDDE

Tests used:
recombinant human HMGB1 = recombinant human HMGB1 (Homo sapiens, UniProt P09429); assay: Affinity pulldown from mouse plasma spiked with r-HMGB1, HMGB1 immunoblot; conditions: mouse plasma with 30 μg/ml r-HMGB1, streptavidin-agarose beads
Experimental: Referring to FIG. 10, streptavidin-agarose beads (Sigma-Aldrich, St. Louis, MO) were blocked with 5% BSA in PBS at 4 °C overnight. Biotinylated HMGB1-BP or biotinylated scrambled HMGB1-BP (Biomatik, Wilmington, DE) was incubated with mouse plasma supplemented with 30 μg/ml recombinant human HMGB1 (GenScript, Piscataway, NJ) at 4 °C overnight. The Streptavidin-agarose beads were added to the mixture and incubated at 4 °C for 2 h. The beads were centrifuged to pellet the beads, washed with PBS 3 times, and boiled in Laemmli Sample Buffer (Bio-Rad, Hercules, CA). The proteins in the pulldown were immunoblotted for r-HMGB1 using an anti-HMGB1 antibody (Abcam, Waltham, MA) using established protocols.

facialis arteries = assay: Endothelial-dependent (ACh-induced) vasodilation of isolated facialis arteries from treated SS mice; conditions: N6022 1 mg/kg/d, subcutaneous, 3 weeks, 1% DMSO; p<0.001
Experimental: (§1) Effects of hE-HMGB1-BP on vasodilation, eNOS-dependent vasodilation, and plasma HMGB1. Townes SS mice were treated daily with hE-HMGB1-BP (Biomatik Corp., Kitchener, Ontario; 2.72 mg/kg/d, subcutaneous injection) for three weeks. On the day of the vasodilation studies, mice were anesthetized with isoflurane (1-3%), subjected to thoracotomy, and euthanized by exsanguination. A hypodermic needle was inserted into the heart's right side, and blood was drawn into EDTA. Plasma was separated by centrifugation. The plasma was divided into aliquots and stored at −80 °C until analysis for HMGB1 using ELISA kits from Tecan (30164033, Männedorf, Switzerland) as described. Facialis arteries were isolated by microdissection, cannulated, and pressurized to 60 mmHg. Changes in vasodilation of (5Z)-7-[(1R,4S,5S,6R)-6-[(1E,3S)-3-hydroxy-1-octenyl]-2-oxabicyclo[2.2.1]hept-5-yl]-5-heptenoic acid (U46619)-preconstricted, pressurized facialis arteries were determined by video microscopy in response to acetylcholine (Ach) (10-7-10-4 M) as before. After determining vasodilation in the absence of N(G)-nitro-L-arginine methyl ester (L-NAME), the bath's MOPS physiological buffer [CaC12 2H2O (2.0 mM), EDTA (0.02 mM), glucose (5.0 mM), KCl (4.7 mM), MgSO4·7H2O (1.17 mM), MOPS (3.0 mM), NaCl (145 mM), NaH2PO4OH2O (1.2 mM), pyruvic acid (2.0 mM)] was replaced with 37 °C MOPS physiological buffer containing L-NAME (100 μM) and Ach-induced relaxation responses determined once again, as above. eNOS-dependent vasodilation was determined from the area between curves (ABC). The area between vasodilation curves in the absence and presence of L-NAME was calculated using the area under the curve function in Prism GraphPad 9.5.0 after correction of paired data for negative relaxation responses. […]
(§2) Effects of inhibiting GSNOR on vasodilation in SS mice. […] Relaxation responses to Ach (10-7 to 10 4 M) were determined in MOPS physiological buffer in the absence and presence of L-NAME by video microscopy as described. […]

[1] = system: eNOS-dependent vasodilation, facialis arteries; assay: eNOS-dependent vasodilation (area between curves ± L-NAME) of facialis arteries from treated SS mice; conditions: SS mice, 3 weeks; KYC 3 mg/kg/d or N6022 1 mg/kg/d in PBS with 1% DMSO; ± L-NAME 100 μM
Experimental: as §1, §2

Row | SMILES | affinity for r-HMGB1 in plasma pulldown (recombinant human HMGB1) | endothelial- and eNOS-dependent vasodilation (in words) (facialis arteries) | eNOS-dependent vasodilation (in words) [1]
1 | CC[C@H](C)[C@H](NC(=O)CNC(=O)[C@H](CCCCN)NC(=O)[C@@H](NC(=O)[C@H](CC(=O)O)NC(=O)[C@H](Cc1ccccc1)NC(=O)[C@H](CC(N)=O)NC(=O)[C@H](CC(N)=O)NC(=O)[C@H](C)NC(=O)[C@H](CO)NC(=O)[C@H](Cc1c[nH]cn1)NC(=O)[C@H](C)NC(=O)CCCCCNC(=O)CCCC[C@@H]1SC[C@@H]2NC(=O)N[C@@H]21)C(C)C)C(N)=O | high specific affinity for r-HMGB1 |  | 
2 | Cc1cc(C(N)=O)ccc1-n1c(CCC(=O)O)ccc1-c1ccc(-n2ccnc2)cc1 |  | markedly increased endothelial- and eNOS-dependent vasodilation | improved eNOS-dependent vasodilation
